# AlphaSeq binding of Ab-14 light chain variants to a spike HR2 peptide

Data: MIT Lincoln Laboratory AlphaSeq set, Li et al. 2023, doi:10.1038/s41467-023-39022-2, as distributed in FLAb.

Antigen: PDVDLGDISGINAS, a 14-residue peptide of the SARS-CoV-2 spike HR2 region.

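The starting antibody came from a phage panning campaign against this peptide. This is the validation round: designs drawn from the data on random variants, tested in the same kind of assay. Their group label is 14L_Ctrl (Ctrl: baseline library sampled from a position-specific scoring matrix, with some repeated check sequences). AlphaSeq pools MATa yeast showing the antibodies with MATalpha yeast showing the peptide. Binding brings cells together so that they mate, and sequencing counts the barcode pairs among the diploids. Each replicate has its own calibration line, from reference interactions of the BCL2 family. There are six technical replicates.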

The variants keep the heavy chain, the linker and the frameworks of Ab-14 (scFv order VH, the linker GGGGSGGGGSGGGGS, VL).
VH: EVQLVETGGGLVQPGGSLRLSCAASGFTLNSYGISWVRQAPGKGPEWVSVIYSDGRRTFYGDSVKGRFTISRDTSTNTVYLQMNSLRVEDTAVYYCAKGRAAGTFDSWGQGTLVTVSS
VL: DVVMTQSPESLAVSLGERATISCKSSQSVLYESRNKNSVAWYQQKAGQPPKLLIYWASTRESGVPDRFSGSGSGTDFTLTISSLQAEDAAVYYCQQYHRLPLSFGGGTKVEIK

Each variant is given by its three light chain CDRs, as the data file delimits them; those of the parent are KSSQSVLYESRNKNSVA, WASTRES, QQYHRLPLS.
Numbers give log10(Kd / nM), so 0 is 1 nM and 3 is 1 µM. Smaller is tighter.
"ND" means that the variant was in the library but no mating with the target was seen in that replicate; the authors take this as a sign of poor binding, and no number exists.
As a blank, each scFv also met three strains without target: over all light chain designs, 4% of these pairings were detected, typically at 2.64 and seldom below 1.59. For each scFv, signals with the empty controls are counted beside the result, with their mean in brackets.
The parent sequence was in this pool as ten entries: three were never detected, three once, and four in most replicates, with averages from 0.34 to 2.37.
The range of this assay differs from that of the first round, and the authors advise against merging the two.
The authors' rule: three or more of the six replicates give a measured affinity, fewer mean a poor binder.

| CDR-L1 | CDR-L2 | CDR-L3 | log10 Kd (nM) by replicate | signal with controls |
|---|---|---|---|---|
| KVSQSVIYESRNKNSVA | WASTRES | QQYHRLPLS | 0.16 / 0.10 / 0.92 / 0.50 / 0.92 / 0.64 | 0 of 18 |
| KSSQSVLYESRFTNSVA | WASTRES | QQYHRLPLS | ND / ND / ND / ND / ND / ND | 0 of 18 |
| KSSQSVLYESRNKNSVA | WASIRES | QQYHRLPLS | ND / ND / ND / ND / 2.25 / ND | 0 of 18 |
| KLSQSVLYESRNKNSVA | WASTRES | QQYFGLPLS | 1.16 / 1.71 / 1.66 / 0.92 / 1.21 / 1.48 | 1 of 18 (2.99) |
| KRSSSVLPESRNKNSEA | AASTREK | QWYHRLPLS | ND / ND / ND / ND / ND / ND | 0 of 18 |
| KSSQSVLYESAFKNSVA | WASTRES | QQYHRLPLS | ND / ND / ND / ND / ND / ND | 0 of 18 |
| KSSQSVGYMSSNKNSIA | WASERES | QQYHRMMLS | ND / ND / ND / ND / ND / ND | 0 of 18 |
| KSSQSELYESRNKNSVA | WASTRES | QQYHRLPLK | ND / 3.08 / 2.37 / 4.45 / 2.31 / 2.75 | 0 of 18 |
| KSSQSVLYESHDKNSVA | WASTRES | QQYHRLPLS | ND / 2.29 / ND / 1.75 / 4.10 / 3.12 | 1 of 18 (1.86) |
| KSSQSVLYQSRNKNSIA | NASTRES | QQYFILPLS | 0.25 / 0.96 / 0.14 / -0.16 / 0.59 / 0.74 | 0 of 18 |
| KSSQSRLYESRNKNSVA | WASIRES | QQYHRLPLS | 2.31 / 1.93 / 2.50 / 2.35 / 2.20 / 1.27 | 1 of 18 (1.99) |
| KFSQSVLGESRNENSVA | GASTRES | QQYHMLPLS | 0.48 / 0.02 / 0.15 / 0.04 / 0.24 / 0.27 | 1 of 18 (2.52) |
| KISQSTLYESRNKNSVA | WASTRES | QQGHRLPLS | 0.97 / 0.67 / 1.35 / 0.68 / 1.94 / 0.90 | 2 of 18 (2.95) |
| KSSQEFLYESRNKNNVA | WASTREF | QQYHRYPLS | 2.02 / ND / ND / ND / ND / ND | 1 of 18 (2.76) |
| KSSQSVLYIDRNKNSVA | QASTRES | QQYHRLPLS | 1.07 / 2.00 / 2.12 / 1.68 / 1.27 / 2.06 | 0 of 18 |
| KVSQSVLTTSRNKNSVA | MASTRES | QQYHRLPLS | 0.53 / 1.35 / 1.70 / 0.71 / 0.26 / 0.79 | 1 of 18 (2.17) |
| KSSQSVLYESFNKNSVA | TRSTRES | QQYHRLPLS | ND / ND / ND / ND / ND / ND | 0 of 18 |
| KSSQSVLYESVNKNSVA | WASTRES | QQYHRKPLS | ND / 2.33 / 1.74 / ND / ND / 1.92 | 2 of 18 (1.62) |
| KMSQSVLYESRNKNSVA | WASTRES | QQYDRLPLI | 0.91 / 1.14 / 1.21 / 1.36 / 1.17 / 0.82 | 1 of 18 (1.82) |
| KQSQSVLPEGRNKNSVA | WASTRES | QQYHRLPLS | ND / ND / 1.96 / 2.11 / 2.75 / ND | 0 of 18 |
| KSSQSVLYESLNFNSVA | HASTRES | QQYHRLPES | 1.27 / 2.22 / 2.44 / 2.04 / 1.85 / 2.37 | 1 of 18 (2.26) |
| KSSQSVEYESSNKNSVA | WASTRES | QQYHRLPIS | ND / ND / ND / ND / 1.83 / ND | 1 of 18 (2.05) |
| KSSQSVLYESRNKHSVA | WASQRED | QSYHRLPLS | ND / 2.07 / 2.66 / 1.83 / 2.33 / 2.27 | 0 of 18 |
| KSSQDVLYESRNKNSVA | SASTRES | QQYHRLPLS | 0.48 / 0.64 / 0.46 / 0.50 / 0.68 / 0.50 | 2 of 18 (2.40) |
| KLSQSVLYESRNANSVA | GASTRES | QQYHRLPLS | 0.34 / 0.06 / -0.09 / -0.06 / 0.03 / 0.16 | 0 of 18 |
| KLDQSVLRESRNKNSVA | WASWRES | QQAHRLPLS | ND / 2.04 / ND / 2.53 / 1.95 / 3.21 | 0 of 18 |
| KVSQSVLYQSNNKNSVA | WASTRES | QQYHRLPLF | 0.54 / 0.47 / 0.63 / 0.77 / 0.67 / 1.13 | 0 of 18 |
| KMSQSVCYNSRNKNSVA | GASTRES | QQYHRLPLS | 0.18 / 0.46 / 0.58 / 0.17 / 0.23 / 0.57 | 2 of 18 (2.77) |
| KISQSVLYESRNKNSVA | WASQRES | QQYPRLPLS | ND / ND / ND / ND / ND / ND | 1 of 18 (2.71) |
| KSEKSKLYESRNKNSVA | QASTRES | QQYHRLPLS | 0.61 / 0.20 / 0.25 / 0.26 / 0.13 / 0.39 | 0 of 18 |
| KSGQSPLYESRNKNSVA | WASTRES | QQYHRLDLS | ND / ND / ND / ND / ND / ND | 0 of 18 |
| KSSPSVLYESRNLNSVA | TASTRES | QQYMRLPLS | ND / ND / ND / ND / 2.05 / ND | 0 of 18 |
| KSSDSVLYESTFKNSVA | GASTRES | QQYGRLPLS | 0.32 / 0.14 / 0.28 / 0.20 / 0.04 / 0.18 | 1 of 18 (1.32) |
| KSSQSVLYESRNKNSVA | KASTRES | FQYHRVPLS | ND / ND / ND / ND / ND / ND | 0 of 18 |
| KSSWSVAQESRNGNSVA | WASTRES | QQYHNLPLS | ND / ND / ND / ND / ND / ND | 0 of 18 |
| KSSQSVLGESRNKNSVA | SASTRES | QQYHRLPLS | 1.31 / 2.30 / 1.83 / 2.74 / 2.03 / 2.85 | 1 of 18 (2.56) |

Top 5 of the variants detected in all replicates, tightest first:

| CDR-L1 | CDR-L2 | CDR-L3 | log10 Kd (nM) by replicate | signal with controls |
|---|---|---|---|---|
| KLSQSVLYESRNANSVA | GASTRES | QQYHRLPLS | 0.34 / 0.06 / -0.09 / -0.06 / 0.03 / 0.16 | 0 of 18 |
| KSSDSVLYESTFKNSVA | GASTRES | QQYGRLPLS | 0.32 / 0.14 / 0.28 / 0.20 / 0.04 / 0.18 | 1 of 18 (1.32) |
| KFSQSVLGESRNENSVA | GASTRES | QQYHMLPLS | 0.48 / 0.02 / 0.15 / 0.04 / 0.24 / 0.27 | 1 of 18 (2.52) |
| KSEKSKLYESRNKNSVA | QASTRES | QQYHRLPLS | 0.61 / 0.20 / 0.25 / 0.26 / 0.13 / 0.39 | 0 of 18 |
| KMSQSVCYNSRNKNSVA | GASTRES | QQYHRLPLS | 0.18 / 0.46 / 0.58 / 0.17 / 0.23 / 0.57 | 2 of 18 (2.77) |